## Antibody variant affinities, Ab-95 light chain, assay 2

The target is the same throughout: PDVDLGDISGINAS, from the HR2 region of SARS-CoV-2 spike.

Each scFv is VH, three GGGGS repeats, VL, as in the parent Ab-95, and differs from it in the CDRs of the light chain only.
VH: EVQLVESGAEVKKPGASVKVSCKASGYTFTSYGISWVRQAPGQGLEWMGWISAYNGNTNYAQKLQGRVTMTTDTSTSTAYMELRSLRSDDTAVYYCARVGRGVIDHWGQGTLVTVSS
VL: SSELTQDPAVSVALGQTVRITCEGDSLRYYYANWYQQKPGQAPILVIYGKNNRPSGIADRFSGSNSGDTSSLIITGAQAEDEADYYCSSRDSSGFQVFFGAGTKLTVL

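The parent was found by panning a naive human phage display library on the peptide. Variants in AAYL52 differ from the parent at up to three CDR positions; double and triple changes were sampled at random. Affinity was read by AlphaSeq, a pooled yeast mating assay with surface-displayed partners. The frequency of each diploid, read from paired DNA barcodes, reflects how well the two displayed proteins bind. A regression on co-assayed BCL2-family reference pairs converts the normalised counts of each replicate to an apparent Kd. Mating was done three times.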

Positions count from residue 1 of the parent VL; E23F puts F in place of E. Scale: log10 of Kd in nM, estimated from mating counts; low values are strong binders. Replicates are averaged; those with no signal do not enter the mean. A pair that was not seen in that replicate is written "nd"; this usually means weak binding, but a binder can also be missed.

| # | changes | replicates, log10 nM | mean log10 Kd (nM) | control signals |
|---|---|---|---|---|
| 1 | E23F L27M Y30T | 1.62 / 1.57 / 1.25 | 1.48 | 5 of 9 (4.17) |
| 2 | N51A N52Q V97L | 2.68 / 2.50 / 2.19 | 2.46 | 3 of 9 (3.96) |
| 3 | E23G S26G | 1.99 / 2.04 / 1.81 | 1.95 | 3 of 9 (4.55) |
| 4 | Y31N | 0.96 / 1.15 / 0.42 | 0.84 | 3 of 9 (4.33) |
| 5 | E23F D25S R53Q | 4.77 / nd / nd | 4.77 | 3 of 9 (4.53) |
| 6 | E23P R28Y V97E | 3.52 / 5.77 / 4.40 | 4.56 | 4 of 9 (4.08) |
| 7 | Y30K N51V V97F | nd / nd / nd | nd | 2 of 9 (3.85) |
| 8 | S26Q F95A Q96M | 3.00 / 4.19 / 3.00 | 3.40 | 3 of 9 (3.35) |
| 9 | Y30T N52M S89D | 1.49 / 1.40 / 1.16 | 1.35 | 3 of 9 (3.68) |
| 10 | K50I S93E | 3.24 / 2.71 / 2.21 | 2.72 | 4 of 9 (4.30) |
| 11 | G24M Y31E N52R | 2.88 / 2.68 / 2.11 | 2.56 | 4 of 9 (3.71) |
| 12 | E23T D25T G94D | 2.96 / 2.76 / 2.87 | 2.87 | 5 of 9 (3.77) |
| 13 | L27S F95Y F98I | nd / nd / 3.93 | 3.93 | 0 of 9 |
| 14 | G49H S92V F98Q | nd / nd / nd | nd | 4 of 9 (3.72) |
| 15 | K50G D91G Q96N | 2.50 / 2.35 / 2.04 | 2.30 | 6 of 9 (4.06) |
| 16 | Y30I Y31I A32F | 3.32 / nd / nd | 3.32 | 2 of 9 (3.59) |
| 17 | R28G Y29F Y30F | 2.27 / 2.84 / 3.99 | 3.03 | 0 of 9 |
| 18 | R53H S88C S89L | 4.98 / nd / nd | 4.98 | 3 of 9 (4.31) |
| 19 | L27F S92P | 3.13 / 3.00 / 2.93 | 3.02 | 5 of 9 (3.91) |
| 20 | S89H R90C F98N | nd / nd / nd | nd | 1 of 9 (3.18) |
| 21 | Y30C P54F S88K | 4.28 / 5.35 / nd | 4.81 | 3 of 9 (3.76) |
| 22 | D25C N33T V97R | 4.38 / nd / nd | 4.38 | 0 of 9 |
| 23 | D25K S92V Q96T | 1.78 / 1.71 / 2.12 | 1.87 | 2 of 9 (4.31) |
| 24 | Y31N K50R S93R | 1.09 / 1.19 / 0.42 | 0.90 | 4 of 9 (3.38) |
| 25 | Y29K Y30I R53Y | 2.99 / 2.83 / 2.01 | 2.61 | 2 of 9 (4.14) |
| 26 | R28Q N33F K50T | 3.43 / nd / 4.04 | 3.74 | 6 of 9 (4.18) |
| 27 | R28S S89C F98P | 2.09 / 2.91 / 2.22 | 2.40 | 2 of 9 (4.50) |
| 28 | R28P N51R S55C | nd / 3.73 / nd | 3.73 | 3 of 9 (3.80) |
| 29 | G24Q R28M P54S | 4.36 / 5.94 / 4.01 | 4.77 | 4 of 9 (4.57) |
| 30 | G24Y S89T Q96R | 3.09 / 3.72 / nd | 3.40 | 3 of 9 (4.30) |
| 31 | D25C N51V | 4.16 / 3.49 / 4.59 | 4.08 | 1 of 9 (5.23) |
| 32 | S55R S93P | 3.16 / 2.98 / 3.13 | 3.09 | 2 of 9 (3.50) |
| 33 | N52A S93E V97M | nd / nd / nd | nd | 2 of 9 (4.30) |
| 34 | E23L Y31R Q96F | 3.01 / 3.22 / 2.42 | 2.88 | 3 of 9 (4.00) |
| 35 | S26D N52A S88D | 3.56 / 3.45 / 3.29 | 3.43 | 4 of 9 (3.73) |
| 36 | D25Q R28A S93V | 2.25 / 2.58 / 1.73 | 2.18 | 0 of 9 |
| 37 | E23C R53E D91S | 3.93 / 4.81 / 4.13 | 4.29 | 2 of 9 (3.94) |

Excerpt, the first 2 entries:

changes	replicates, log10 nM	mean log10 Kd (nM)	control signals
E23F L27M Y30T	1.62 / 1.57 / 1.25	1.48	5 of 9 (4.17)
N51A N52Q V97L	2.68 / 2.50 / 2.19	2.46	3 of 9 (3.96)

Three control strains display no target. For library AAYL52, 28% of the pairings with them gave a signal, with a median of 3.91 and one signal in twenty below 2.90, so weak values seen in few replicates may be background. The control count says in how many pairings with the empty strains this scFv gave a signal, with their mean in brackets. For reference, the parent read 2.31 as the reference entry and 2.25 as a member of this library.

Values reported by Engelhart et al. 2022, doi:10.1038/s41597-022-01779-4 (FLAb copy).